The values that follow come from ChEMBL document CHEMBL1133089 (J Med Chem, 2000).

The chains behind the UniProt entries cited, without tags or fusion partners. Where a name states a change or a piece, a line headed by the entry shows the natural chain unless it says otherwise.
UniProt P09483: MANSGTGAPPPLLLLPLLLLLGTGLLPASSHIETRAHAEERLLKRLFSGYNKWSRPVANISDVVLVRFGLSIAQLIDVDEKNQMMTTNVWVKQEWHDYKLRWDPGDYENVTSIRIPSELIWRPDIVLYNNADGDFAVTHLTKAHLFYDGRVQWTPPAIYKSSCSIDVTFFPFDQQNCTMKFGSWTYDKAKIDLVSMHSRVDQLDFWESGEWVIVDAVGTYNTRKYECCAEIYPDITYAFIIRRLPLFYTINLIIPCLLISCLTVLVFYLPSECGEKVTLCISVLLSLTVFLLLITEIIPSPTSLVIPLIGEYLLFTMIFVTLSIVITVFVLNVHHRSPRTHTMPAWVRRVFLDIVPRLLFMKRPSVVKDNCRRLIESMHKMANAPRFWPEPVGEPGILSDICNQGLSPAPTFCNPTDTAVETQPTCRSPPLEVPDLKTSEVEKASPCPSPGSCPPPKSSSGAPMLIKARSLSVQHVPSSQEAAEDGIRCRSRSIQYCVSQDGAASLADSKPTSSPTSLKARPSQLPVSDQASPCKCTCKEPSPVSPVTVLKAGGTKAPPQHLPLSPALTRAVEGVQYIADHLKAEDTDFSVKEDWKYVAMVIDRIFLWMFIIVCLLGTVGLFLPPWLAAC
UniProt P12390, whole entry: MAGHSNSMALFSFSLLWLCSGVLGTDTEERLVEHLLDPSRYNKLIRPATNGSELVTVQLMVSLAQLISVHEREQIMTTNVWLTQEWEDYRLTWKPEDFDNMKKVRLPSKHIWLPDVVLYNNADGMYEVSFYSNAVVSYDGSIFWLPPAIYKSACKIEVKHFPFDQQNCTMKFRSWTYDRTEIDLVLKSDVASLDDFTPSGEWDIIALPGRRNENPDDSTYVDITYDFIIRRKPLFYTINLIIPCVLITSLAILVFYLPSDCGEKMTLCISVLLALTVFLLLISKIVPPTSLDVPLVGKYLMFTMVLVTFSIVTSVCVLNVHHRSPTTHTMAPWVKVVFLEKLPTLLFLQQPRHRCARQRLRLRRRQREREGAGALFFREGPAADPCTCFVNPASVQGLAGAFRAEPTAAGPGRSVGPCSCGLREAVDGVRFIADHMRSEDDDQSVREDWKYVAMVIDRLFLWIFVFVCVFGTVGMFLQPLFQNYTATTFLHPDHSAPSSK

Each structure is given as a SMILES string.

For the assay, the target named is Neuronal acetylcholine receptor; alpha4/beta2 (Rattus norvegicus, UniProt P09483+P12390). Description: binding affinity in rat forebrain against alpha4-beta2 nicotinic receptor.
For orientation: Ki means the dissociation constant of the complex between target and ligand, obtained from inhibition or displacement. Low readings indicate higher affinity, high ones lower affinity. The compound `O=C1NCC2(CN3CCC2CC3)O1` (single isomer, unassigned; (-)) showed a Ki of 16 µM.
The figure for `O=C1NCC2(CN3CCC2CC3)O1` (single isomer, unassigned; (+)) is 30 µM; for `O=C1NC[C@@]2(CN3CCC2CC3)O1` it is 16 µM.
